Screens: PubChem BioAssay, Broad Institute
Compounds with a hit are over-represented: about 2.2% of the library has one in this group of screens.
FGF22 binding: binders of human FGF22 protein, primary screen, FGF22 synaptogenesis inhibitor project, biophysical, thermal shift, single point | Fibroblast growth factor 22 (Homo sapiens), Q9HCT0 | recombinant FGF22 thermal shift, SYPRO orange fluorescence; percent of sucrose octasulfate shift, DMSO zero | activity (Tm shift, normalised), % at 9.99 µM | 340,000 compounds, 1.5% hits | AID 651658, 2012;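 active = mean Tm shift, scaled 0 neutral to 100 positive control, at about 1.3% or above, every replicate too, limit read from the data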
Yeast UUG start: modulators of yeast start codon fidelity, primary screen, whole organism, S. cerevisiae, single point, plate reader. S. cerevisiae UUG-firefly luciferase reporter, luminescence/redox ratio. activity score, % at 18.7 µM. actives 0.13% (n = 350,000);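 active = replicate mean at a twofold rise or more, about +100% in these data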;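 note: firefly luciferase made from a UUG start codon reports start codon fidelity; reporter light over untreated wells divided by growth signal over untreated wells; some hits fall short of that in this replicate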
ERp5 inh: inhibitors of ERp5-driven insulin aggregation, primary screen, biochemical, turbidity, absorbance 650 nm, single point; Protein disulfide-isomerase A6 (Homo sapiens), Q15084; AID 651711, 2012; inhibition, % at 9.99 µM; 350,000 compounds, 0.05% hits; 90 min;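 active = mean replicate inhibition above about 25%, with every replicate also reaching it, limit read from the data, passing the limit was not always enough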
SIRT5 block: SIRT5 desuccinylase inhibitors, primary screen, biochemical, fluorescence imaging, single point, set 5; NAD-dependent protein deacylase sirtuin-5, mitochondrial (Homo sapiens), Q9NXA8; Purified SirT5, succinyl-peptide AMC, trypsin-coupled fluorescence; inhibition, % at 15 µM; 330,000 compounds, 1.1% hits; in the data active = inhibition above about 15%
PDI inh: inhibitors of human PDI, primary screen, biochemical, turbidity, single point, plate reader | AID 588391, 2011 | 350,000 compounds, 0.052% hits | Protein disulfide-isomerase (Homo sapiens), P07237 | inhibition, % at 10 µM | PDI insulin aggregation turbidity, A650, 90 min;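 active = mean inhibition across replicates of 30% or more, whatever share of single replicates reach that level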
S100A4 MyoIIA: inhibitors of S100A4-myosin IIA peptide binding, primary screen, biochemical, fluorescence polarization, TAMRA-MyoIIA peptide | inhibition, % at 10.7 µM | AID 652163, 2013 | 360,000 compounds, 0.14% hits | Protein S100-A4 (Homo sapiens), P26447;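 active = mean inhibition of at least 70% across replicates, with every replicate also reaching that level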
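Material: S100A4 monomer protein / Buffer or medium: 50 mM HEPES pH 7.2, 10 mM CaCl2, 100 mM KCl / Times: 5 min incubation before reading / Benchmarks: neutral control DMSO, positive control TFP / Reagent: labelled myosin peptide probe, 5 nM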
A number is an active result; – = inactive; · = no result.

SMILES	FGF22 binding	Yeast UUG start	ERp5 inh	SIRT5 block	PDI inh	S100A4 MyoIIA
COc1ccccc1C(=O)NC(=O)COC(=O)CN1C(=O)NC2(CCCCC2C)C1=O (stereo unspecified)	–	·	–	–	–	–
COc1ccccc1COC(=O)CN1C(=O)NC2(CCCCC2C)C1=O (stereo unspecified)	43	–	–	–	–	–
CC1CCCCC12NC(=O)N(CC(=O)Nc1ccc(N3CCOCC3)cc1)C2=O (stereo unspecified)	–	·	–	16	–	–
O=C(c1cnccn1)N1CC[C@@H]2[C@@H](CO)Nc3ccc(-c4ccccc4)cc3[C@@H]21	–	–	–	–	·	–
C[C@H](CO)N1C[C@H](C)[C@H](CN(C)S(C)(=O)=O)Oc2c(NC(=O)Nc3ccc(C(F)(F)F)cc3)cccc2C1=O	–	–	–	–	·	–
CCC(=O)Nc1ccc2c(c1)C(=O)N(C)[C@H]1CC[C@@H](CC(=O)N3CCc4ccccc4C3)O[C@H]1CO2	·	–	·	·	·	·
CCN(CC)S(=O)(=O)c1ccc(C(=O)Nc2nnc(-c3ccco3)o2)cc1	·	·	·	·	–	·
CN(C)S(=O)(=O)c1ccc(C(=O)Nc2nnc(-c3ccco3)o2)cc1	–	–	–	16	–	–
CCCC#Cc1ccc(CC[C@H]2O[C@H]3CC[C@@H](CO)O[C@H]3C[C@H]2NS(=O)(=O)c2ccccc2)cc1	·	·	–	20	·	–
C[C@H]1CCCCO[C@H](CN(C)C(=O)Nc2ccc(F)cc2)[C@@H](C)CN([C@@H](C)CO)C(=O)c2cc(NC(=O)Nc3ccc(F)cc3)ccc2O1	–	–	–	–	·	–
C[C@@H]1CCCCO[C@@H](CN(C)Cc2ccc3c(c2)OCO3)[C@@H](C)CN([C@@H](C)CO)C(=O)c2cc(NS(=O)(=O)c3ccc(F)cc3)ccc2O1	·	–	–	–	·	–
C[C@@H]1CCCCO[C@H](CN(C)CC2CCCCC2)[C@H](C)CN([C@@H](C)CO)C(=O)c2cc(NC(=O)C3CCCCC3)ccc2O1	–	–	–	–	·	–
N#Cc1c(-c2ccccc2)nc(SCC(=O)Nc2ccccc2)[nH]c1=O	·	–	·	·	–	·
N#Cc1c(-c2ccccc2)nc(SCC(=O)Nc2ccccc2F)[nH]c1=O	1.9	–	–	–	–	–
COc1cc(/C=C/C(=O)OCC(=O)Nc2cccc(F)c2)ccc1O	45	–	–	·	–	–
COc1ccc(CC(=O)NNC(=O)CCC(=O)Nc2cc(C)ccc2C)cc1	44	·	–	–	–	–
COc1ccc(C(=O)NNC(=O)CCC(=O)Nc2ccc(C)cc2C)cc1	–	–	–	–	–	–
CCOC(=O)c1oc2cc(O)cc(C)c2c(=O)c1-c1cscn1	·	–	·	·	–	–
CCCc1cc2c(=O)c(-c3cscn3)c(C(=O)OCC)oc2cc1O	43	–	–	–	–	–
CN(C)/C=N/S(=O)(=O)c1ccc(Cl)cc1	43	–	–	–	–	–
Cc1ccc(S(=O)(=O)/N=C/N(C)C)cc1	·	–	·	·	–	·
CC(C)C[C@H]1COc2cc(N3CC[C@H](O)C3)ccc2S(=O)(=O)N1	–	·	–	33	·	–
Cc1ccsc1/C=N\NC(=O)CC(=O)NCc1ccccc1	43	·	–	–	–	–
CCOc1cc(/C=N/NC(=O)c2cccnc2)cc(Br)c1OCC(N)=O	44	·	–	–	–	–
C#CCOc1ccc(/C=N/NC(=O)c2cccnc2)cc1OCC	–	–	–	–	–	–
SMILES	FGF22 binding	Yeast UUG start	ERp5 inh	SIRT5 block	PDI inh	S100A4 MyoIIA
COc1cccc(C(=O)Oc2ccc(/C=N/NC(=O)c3ccncc3)cc2OC)c1	–	–	–	21	–	–
COc1cc(/C=N/NC(=O)c2cccnc2)ccc1OCC(=O)Nc1ccccc1Cl	43	–	–	–	–	–
CO[C@H](CN(C)S(=O)(=O)c1ccc(Cl)cc1)[C@@H](C)CN(Cc1ccccc1Cl)[C@@H](C)CO	–	·	–	–	·	–
C[C@H](CO)N1C[C@H](C)[C@H](CN(C)C(=O)NC2CCCCC2)Oc2ccc(NS(=O)(=O)c3cn(C)cn3)cc2CC1=O	–	–	·	·	·	·
O=C(NCCc1c[nH]c2ccccc12)c1ccc(Br)o1	2.3	–	–	–	–	–
O=C(NCCc1ccc(O)c(Br)c1)c1ccc(Br)o1	1.7	·	–	–	·	–
